The list shows a part of the results, in another mix than the full data. Some structures show a salt or complex split into parts, the way the source records it. Calls of active or inactive are those of the source.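 The calls were made as follows: active = inhibition of 40% or more; inactive = the rest.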
target: Kallikrein-5 (Homo sapiens) (UniProt Q9Y337); test: inhibition of kallikrein 5 (hK5) activity – biochemical, 1536-well, primary screen (AID 873); conditions: recombinant hK5, fluorogenic AMC substrate cleavage; at 5 µM; stronger effect = higher value;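 also: 0% = enzyme controls without compound and 100% = no-enzyme blanks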

The chains behind the UniProt entries cited, without tags or fusion partners. Residues count along the entry.
UniProt Q9Y337, 67-293 limits assumed: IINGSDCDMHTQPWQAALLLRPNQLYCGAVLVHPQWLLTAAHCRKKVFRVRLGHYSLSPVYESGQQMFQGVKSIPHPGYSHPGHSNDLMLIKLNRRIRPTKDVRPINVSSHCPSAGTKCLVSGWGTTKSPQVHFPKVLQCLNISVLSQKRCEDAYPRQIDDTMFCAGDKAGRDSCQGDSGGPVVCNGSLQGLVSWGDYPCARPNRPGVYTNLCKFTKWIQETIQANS

| SMILES | inhibition |
| --- | --- |
| CP(=O)(Nc1cccc(Br)c1)Oc1ccccc1 (configuration not stated) | inactive: 2.58% |
| Cc1cc(C)cc(OP(C)(=O)Nc2ccccn2)c1 (configuration not stated) | inactive: -1.28% |
| Cc1ccc(C)c(NP(C)(=O)Oc2ccccc2)c1 (configuration not stated) | inactive: -9.38% |
| Cc1cc(C)cc(OP(C)(=O)Nc2ccc(C)cc2C)c1 (configuration not stated) | inactive: -5.67% |
| CCOC(=O)c1ccc(NP(C)(=O)Oc2cc(C)cc(C)c2)cc1 (configuration not stated) | inactive: -23.1% |
| COc1ccccc1OP(C)(=O)Nc1cccc(Br)c1 (configuration not stated) | inactive: 2.11% |
| CC1=NCCc2c1[nH]c1ccccc21.O=[N+]([O-])c1cc([N+](=O)[O-])c(O)c([N+](=O)[O-])c1 | inactive: 20.6% |
| O=C(O)c1cccc(Nc2c([N+](=O)[O-])cc([N+](=O)[O-])cc2[N+](=O)[O-])c1 | inactive: -0.82% |
| CP(=O)(Nc1ccc(SC(F)(F)F)cc1)Oc1ccccc1 (configuration not stated) | inactive: -21.3% |
| CCCOc1ccc(NP(C)(=O)Oc2ccc(Cl)cc2)cc1 (configuration not stated) | inactive: -2.43% |
| COc1ccccc1OP(C)(=O)Nc1c(C)cccc1C (configuration not stated) | inactive: -6.99% |
| CN1CCCCC1COC(=O)C1(O)c2ccccc2CCc2ccccc21 (configuration not stated) | inactive: -5.34% |
| O=[N+]([O-])c1cc([N+](=O)[O-])c(Nc2nnnn2CCO)c([N+](=O)[O-])c1 | inactive: 0.72% |
| CCOC(=O)C(CC)C1=NC(C)(C)Cc2ccccc21.O=[N+]([O-])c1cc([N+](=O)[O-])c(O)c([N+](=O)[O-])c1 (configuration not stated) | inactive: -0.54% |
| Cc1nc2ccc3ccccc3c2s1.O=[N+]([O-])c1cc([N+](=O)[O-])c(O)c([N+](=O)[O-])c1 | inactive: -13.9% |
| O=[N+]([O-])c1cc([N+](=O)[O-])c(-n2nnc3ccccc32)c([N+](=O)[O-])c1 | inactive: 0.36% |
| CP(=O)(Nc1ccccn1)Oc1ccc(Cl)cc1 (configuration not stated) | inactive: -2.2% |
| CCOP(C)(=S)SCC(=O)NC(C)C(=O)O (configuration not stated) | inactive: -13.9% |
| CCOC(=O)c1ccc(NP(C)(=O)Oc2ccc(OC)cc2)cc1 (configuration not stated) | inactive: -7.84% |
| CCc1ccc(OP(C)(=O)N2CCN(c3ccc([N+](=O)[O-])cc3)CC2)cc1 (configuration not stated) | inactive: -0.28% |
| CP(=O)(NC(=O)Nc1ccccc1)Oc1ccccc1 (configuration not stated) | inactive: -13.7% |

| SMILES | inhibition |
| --- | --- |
| Cc1cc(C)cc(OP(C)(=O)Nc2ccc(SC(F)(F)F)cc2)c1 (configuration not stated) | active: 48.5% |
| Cc1cccc(C)c1OP(C)(=O)Nc1ccc(SC(F)(F)F)cc1 (configuration not stated) | inactive: 3.29% |
| CP(=O)(Nc1ccc(SC(F)(F)F)cc1)Oc1ccc(Cl)cc1 (configuration not stated) | inactive: 3.69% |
| CP(=O)(Oc1ccccc1)OC(c1ccccc1)C(F)(F)F (configuration not stated) | inactive: 18.3% |
| COc1ccccc1OP(C)(=O)Nc1ccccc1 (configuration not stated) | inactive: -6.38% |
| CP(=O)(Nc1ccccc1Br)Oc1ccccc1 (configuration not stated) | inactive: -3.54% |
| CP(=S)(Nn1cnnc1)Oc1ccccc1 (configuration not stated) | inactive: 12.5% |
| COc1ccccc1OP(C)(=O)Nc1cc(Cl)ccc1C (configuration not stated) | inactive: -3.5% |
| COc1ccc(OP(C)(=O)Nc2cccc(F)c2)cc1 (configuration not stated) | inactive: -10.2% |
| Cc1cc(C)cc(OP(C)(N)=O)c1 (configuration not stated) | inactive: 2.87% |
| CCOC(=O)c1ccc(NP(C)(=O)Oc2ccccc2)cc1 (configuration not stated) | inactive: -12.8% |
| COc1ccccc1OP(C)(=O)Nc1ccc(C)cc1 (configuration not stated) | active: 51.2% |
| Cc1ccc(NP(C)(=O)Oc2ccccc2)c(C)c1 (configuration not stated) | inactive: -6.81% |
| CC(C)(C)c1ccc(OP(C)(=O)Nc2ccc(SC(F)(F)F)cc2)cc1 (configuration not stated) | inactive: -11.8% |
| Cc1cccc(C)c1OP(C)(N)=O (configuration not stated) | inactive: -3.35% |
| O=[N+]([O-])c1ccc2c(c1)C=Nc1ccccc1O2 | inactive: 13% |
| CCN(CC)CCCOC(=O)C(O)(c1ccccc1)c1ccccc1 | inactive: 7.83% |
| CCc1ccc(OP(C)(=O)O)cc1 | inactive: 5.4% |
| CP(=O)(Nc1ccccn1)Oc1ccccc1 (configuration not stated) | inactive: 12.5% |
| COc1ccccc1OP(C)(=O)Nc1ccc(C)cc1C (configuration not stated) | inactive: 0.79% |
| O=[N+]([O-])c1cc([N+](=O)[O-])c(Nc2ccccn2)c([N+](=O)[O-])c1 | inactive: 0.17% |

| SMILES | inhibition |
| --- | --- |
| Cc1c(NP(C)(=O)Oc2ccc(C(C)C)cc2)c(=O)n(-c2ccccc2)n1C (configuration not stated) | inactive: -28.9% |
| CN(C)CCOC(=O)C(O)(c1ccccc1)C1CCCC1 (configuration not stated) | inactive: 1.36% |
| COc1ccc(OP(C)(=O)Nc2ccccn2)cc1 (configuration not stated) | inactive: -3.54% |
| COc1ccccc1OP(C)(=O)Nc1ccc(Br)cc1 (configuration not stated) | inactive: -2.9% |
| CP(=O)(OCCOc1ccccc1)OCCOc1ccccc1 | inactive: 0.99% |
| CP(=O)(Nc1ccc(Cl)cc1Cl)Oc1ccccc1 (configuration not stated) | inactive: -11.7% |
| Cc1nc2ccc3ccccc3c2o1.O=[N+]([O-])c1cc([N+](=O)[O-])c(O)c([N+](=O)[O-])c1 | inactive: 5.12% |
| COc1ccc(OP(C)(=O)Nc2ccccc2Br)cc1 (configuration not stated) | inactive: -2.03% |
| COc1ccccc1OP(C)(=O)Nc1ccc(C)c(C)c1 (configuration not stated) | inactive: -9.24% |
| Cc1cc(C)cc(OP(C)(=O)Nc2cccc(C(F)(F)F)c2)c1 (configuration not stated) | inactive: 4.75% |
| CP(=O)(OC12CC3CC(CC(C3)C1)C2)OC12CC3CC(CC(C3)C1)C2 | inactive: -9.97% |
| CCOC(=O)c1ccc(NP(C)(=O)Oc2ccc(Cl)cc2)cc1 (configuration not stated) | inactive: -13.2% |
| CN(C)C(=O)c1c([N+](=O)[O-])cc([N+](=O)[O-])cc1[N+](=O)[O-] | inactive: -3.44% |
| CP(=O)(Nc1ccc(Cl)cc1)Oc1ccc(F)cc1 (configuration not stated) | inactive: -1.38% |
| CC(C)(C)c1ccc(OP(C)(=O)O)cc1 | inactive: -5.12% |
| COc1ccccc1OP(C)(=O)Nc1ccccc1Br (configuration not stated) | inactive: -6.22% |
| CP(=O)(Oc1ccccc1)N1CCOC1=O (configuration not stated) | inactive: 24.1% |
| CCc1ccc(OP(C)(=O)Nc2cccnc2)cc1 (configuration not stated) | inactive: -4.97% |
| O=C(OCCCN1CCCC1)C(O)(c1ccccc1)C1CCCCC1 (configuration not stated) | inactive: 1.35% |
| CCN(CC)CC(O)COC(=O)C(O)(c1ccccc1)C1CCCCC1 (configuration not stated) | inactive: -4% |
| COc1ccc(OP(C)(=O)Nc2ccc(Br)cc2)cc1 (configuration not stated) | inactive: -18.6% |

| SMILES | inhibition |
| --- | --- |
| Cc1ccccc1NP(C)(=O)Nc1ccccc1C | inactive: 4.52% |
| CP(=O)(Nc1ccc2c(c1)OCCO2)Oc1ccccc1 (configuration not stated) | inactive: -24.8% |
| CCOP(C)(=S)SCC(=O)NC(C)(CC)C(=O)O (configuration not stated) | inactive: -3.82% |
| CP(=O)(Nc1ccc(SC(F)(F)F)cc1)Oc1ccc(F)cc1 (configuration not stated) | inactive: 1.47% |
| O=[N+]([O-])c1cc([N+](=O)[O-])c(NCC2CCS(=O)(=O)C2)c([N+](=O)[O-])c1 (configuration not stated) | inactive: -0.22% |
| Cc1cc(-c2cccc3ccccc23)c(C)cn1.O=[N+]([O-])c1cc([N+](=O)[O-])c(O)c([N+](=O)[O-])c1 | inactive: -7.42% |
| O=[N+]([O-])c1ccc(OP2(=O)COCCO2)cc1 (configuration not stated) | inactive: 1.82% |
| CN(C)CCOC(=O)C(O)(c1ccccc1)C1CCCCC1 (configuration not stated) | inactive: -11.3% |
| COc1ccc(OP(C)(=O)Nc2cccc(Br)c2)cc1 (configuration not stated) | inactive: 3.8% |
| CCCCCOc1ccc(NP(C)(=O)Oc2ccc(Cl)cc2Cl)cc1 (configuration not stated) | inactive: -1.82% |
| CP(=O)(Nc1ccccc1)Oc1ccc(F)cc1 (configuration not stated) | inactive: -4.68% |
| CCN(CC)CCCOC(=O)C(O)(c1ccccc1)C1CCCCC1 (configuration not stated) | inactive: -12.9% |
| COc1ccc(OP(C)(=O)Nc2ccc(SC(F)(F)F)cc2)cc1 (configuration not stated) | inactive: -15.1% |
| CCOC(=O)c1ccc(NP(C)(=O)Oc2ccc(F)cc2)cc1 (configuration not stated) | inactive: -9% |
| COc1ccc2c(c1O)-c1c(O)c(OC)cc3c1[C@H](C2)[N+](C)(C)CC3.O=[N+]([O-])c1cc([N+](=O)[O-])c([O-])c([N+](=O)[O-])c1[O-] | inactive: 5.49% |
| O=C(OCCN1CCN(CCOCc2ccccc2)CC1)C(O)(c1ccccc1)c1ccccc1 | inactive: -8.5% |
| O=C(OC1CN2CCC1CC2)c1ccc([N+](=O)[O-])cc1 (configuration not stated) | inactive: -5.58% |
| CC(C)c1ccc(OP(C)(=O)Nc2ccc(SC(F)(F)F)cc2)cc1 (configuration not stated) | inactive: -8.06% |
| CP(=O)(Nc1ccccc1F)Oc1ccccc1 (configuration not stated) | inactive: 6.65% |

— PubChem BioAssay AID873 (PCMD, 2007)
